This note sets out measurements from patent publication US11077120B2, “Prostaglandin receptor EP2 antagonists, derivatives, compositions, and uses related thereto” (Emory University, priority 2014, dated 2021).

The chains behind the UniProt entries cited, without tags or fusion partners. Where a name states a change or a piece, a line headed by the entry shows the natural chain unless it says otherwise.
UniProt P35408: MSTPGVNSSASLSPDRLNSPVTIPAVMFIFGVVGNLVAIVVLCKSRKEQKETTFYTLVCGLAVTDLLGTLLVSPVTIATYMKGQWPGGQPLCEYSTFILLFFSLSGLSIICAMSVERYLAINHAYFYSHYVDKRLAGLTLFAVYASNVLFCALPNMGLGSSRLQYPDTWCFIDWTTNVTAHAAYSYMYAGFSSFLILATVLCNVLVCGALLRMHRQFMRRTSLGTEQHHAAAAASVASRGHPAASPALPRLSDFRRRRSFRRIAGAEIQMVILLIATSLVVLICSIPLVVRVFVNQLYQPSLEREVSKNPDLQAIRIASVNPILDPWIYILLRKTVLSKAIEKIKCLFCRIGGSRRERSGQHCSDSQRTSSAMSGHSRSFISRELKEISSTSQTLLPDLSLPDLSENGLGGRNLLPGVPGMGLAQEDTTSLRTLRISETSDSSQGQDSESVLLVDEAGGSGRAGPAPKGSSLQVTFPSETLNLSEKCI
UniProt P43119: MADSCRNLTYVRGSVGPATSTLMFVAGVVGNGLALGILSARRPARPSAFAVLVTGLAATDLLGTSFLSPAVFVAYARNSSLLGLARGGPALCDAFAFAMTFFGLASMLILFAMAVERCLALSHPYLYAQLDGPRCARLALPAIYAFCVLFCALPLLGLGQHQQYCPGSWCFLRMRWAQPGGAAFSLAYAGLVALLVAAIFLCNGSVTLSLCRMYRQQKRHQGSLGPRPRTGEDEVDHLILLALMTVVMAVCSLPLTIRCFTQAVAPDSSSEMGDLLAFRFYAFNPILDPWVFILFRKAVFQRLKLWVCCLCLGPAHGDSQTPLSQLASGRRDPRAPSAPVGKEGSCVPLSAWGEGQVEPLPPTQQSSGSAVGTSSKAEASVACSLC

Series [1] has as its target T1, human EP4 receptors (Homo sapiens, UniProt P35408).
T1 construct: expressed in transfected cells
The experiment in a line: cell-based cAMP TR-FRET assay, EP4 (agonist PGE2). The procedure:
(§1) These derivatives were selected for testing against EP4 and IP receptors. Cell lines were created that overexpress EP4 receptors, or IP receptors on C6-glioma cells. A cAMP-derived TR-FRET assay was developed using agonists PGE2 (for EP4) and iloprost (for IP), similar to EP2 assay.
(§2) Intracellular cAMP was measured with a cell-based homogeneous time-resolved fluorescence resonance energy transfer (TR-FRET) method (Cisbio Bioassays). […] Endogenous cAMP produced by cells competes with labeled cAMP for binding to the cAMP antibody and thus reduces the FRET signal. Cells stably expressing human DP1, EP2, EP4, or IP receptors were seeded into 384-well plates in 30 μl complete medium (4,000 cells/well) and grown overnight. The medium was carefully withdrawn and 10 μl Hanks' Buffered Salt Solution (HBSS) (Hyclone) containing 20 μM rolipram was added into the wells to block phosphodiesterases. […] After 60-90 min incubation at room temperature, the FRET signal was measured by an Envision 2103 Multilabel Plate Reader (PerkinElmer Life Sciences) with a laser excitation at 337 nm and dual emissions at 665 nm and 590 nm for d2 and Cryptate (50 s delay), respectively. The FRET signal was expressed as: F665/F590×10^4.
For orientation: TR-FRET usually uses a lanthanide donor and a delayed reading to cut background.

The nature of series [2]: in vivo pharmacokinetic study of 7z (ip vs po). Particulars: intraperitoneal vs oral route.
The target of series [3] is T2, human IP receptors (Homo sapiens, UniProt P43119).
T2 construct: expressed in transfected cells
The experiment in a line: cell-based cAMP TR-FRET assay, IP (agonist iloprost). Particulars: Table 2. The procedure: as §1, §2

The subject of series [4] is C6-glioma cells. The note with it: rat.
The target in series [5] is T3, human DP1 receptors (Homo sapiens, UniProt Q13258).
T3 construct: expressed in transfected cells
T3 sequence (Q13258 1-359): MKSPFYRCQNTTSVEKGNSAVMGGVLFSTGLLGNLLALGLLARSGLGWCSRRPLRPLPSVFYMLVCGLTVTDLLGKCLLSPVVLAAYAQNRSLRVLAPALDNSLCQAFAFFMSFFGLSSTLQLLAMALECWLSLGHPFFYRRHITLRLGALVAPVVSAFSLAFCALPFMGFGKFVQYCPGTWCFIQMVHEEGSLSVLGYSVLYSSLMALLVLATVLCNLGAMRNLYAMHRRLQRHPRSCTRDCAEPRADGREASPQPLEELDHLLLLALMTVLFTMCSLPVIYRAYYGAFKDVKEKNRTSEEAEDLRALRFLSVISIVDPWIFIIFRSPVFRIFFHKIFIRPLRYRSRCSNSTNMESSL
The series is described as follows: cell-based cAMP TR-FRET assay, DP1 (agonist BW245C). Particulars: Table 2. The procedure:
The synthesis was carried out starting from commercially available 2-methyl indole or 2-trifluoromethyl indoles (11a-c), which on treatment with bromoacetonitrile provided intermediates (12a-c), which then were subjected to lithium aluminum hydride to reduce cyanide to amines. […] Synthesized derivatives were tested by using a cAMP-derived TR-FRET assay, at single concentration (1 μM) to observe a rightward shift of PGE2 (an EP2 agonist) concentration response curve in a C6G cell line that overexpresses human EP2 receptors.
Intracellular cAMP was measured with a cell-based homogeneous time-resolved fluorescence resonance energy transfer (TR-FRET) method (Cisbio Bioassays). […] Endogenous cAMP produced by cells competes with labeled cAMP for binding to the cAMP antibody and thus reduces the FRET signal. Cells stably expressing human DP1, EP2, EP4, or IP receptors were seeded into 384-well plates in 30 μl complete medium (4,000 cells/well) and grown overnight. The medium was carefully withdrawn and 10 μl Hanks' Buffered Salt Solution (HBSS) (Hyclone) containing 20 μM rolipram was added into the wells to block phosphodiesterases. […] The FRET signal was expressed as: F665/F590×10^4.

In the case of `Cc1cc2ccccc2n1CCNC(=O)c1ccc(-c2nnn[nH]2)cc1` [Compound 7z], in series [1] (EP2 over EP4), the “selectivity over EP4” value is recorded as about 600 fold. The “Selective Index EP4/EP2” value in series [1] (Table 2) was found to be 584. Moreover, the “fold higher peak concentrations in plasma, ip in comparison to po” value in series [2] is on record as “about 12 fold”. Moreover, the “Selective Index (IP/EP2)” value in series [3] came to 1040. For the same compound, in series [4], the “Therapeutic Index (CC50/EP2 KB)” value is reported as >13,450. Moreover, in series [5], the “Selective Index (DP1/EP2)” value was 29.
